Experimental data taken from patent publication US10202399B2, “Dihydroxy aromatic heterocyclic compound” (Takeda Pharmaceutical Company Limited, priority 2011, dated 2019).

Tested on: MK-801 (dizocilpine)-induced impaired spontaneous alternation behavior in mice
Conditions: male ddY mice, 0.03-0.1 mg/kg oral administration, MK-801 0.15 mg/kg i.p., Y-maze 8 min

O=c1[nH]nc(CCc2cc(F)cc(F)c2)cc1O [Example 24, 6-[2-(3,5-difluorophenyl)ethyl]-4-hydroxypyridazin-3(2H)-one]
spontaneous alternation rate relative to the Control group: significantly increased
